Experiments:
actin filaments [1] = molecular target: T1, actin filaments (Alexa488 label on 3-20% of the actin in the microscopy assays); assay: TIRF microscopy of single filaments
actin filaments [2] = molecular target: T1, actin filaments; assay: TIRF microscopy of single filaments; remark: listed apart in the source

B1: Cy5-Tm1A (AS-Tm1A C32A/S82C labeled with Cy5-maleimide; non-muscle Drosophila tropomyosin isoform Tm1A) (natural protein)
chain: MASMTTSIPQGTLLDVLKKKMRQTKEEMEKYKDEAEEFHKRLQLEVVRREEAESEVAALNRRIQLLEEDLERSEERLGSATAKLCEASQAADESERIRKALENRTNMEDDKVALLENQLAQAKLIAEEADKKYEEVARKLVLMEQDLERSEEKVELSESKIVELEEELRVVGNNLKSLEVSEEKATQKEETFETQIKVLDHSLKEAEARAEFAERSVQKLQKEVDRLEDDLLNVRGKNKLLQEEMEATLHDIQNM
modifications: Cy5-maleimide label
Question: Which Kd (actin filaments [1]) does the source give for B1 here?
Answer: 22 nM

Question: And the “t1/2 of the initial interaction” value (actin filaments [2])?
Answer: 12.1 min
